Measured values from PubChem BioAssay (NCI).
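Where inhibition never reached the appropriate level, the endpoint shown equals the highest concentration tested. Otherwise, values were interpolated linearly from a five-concentration, 48-hour dose response in 96-well plates. The concentration for 50% growth inhibition is given as GI50. Definition used: TGI = concentration required for complete inhibition of growth.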

System: SW-620 colon
Assay: growth of human tumour cells (NCI), 48 h

Molecule `CC[C@H](C)[C@H]1NC(=O)/C(=C(\C)O)C1=O` has a GI50 of 21.4 µM and a TGI of 76.5 µM.
